The values below come from PubChem BioAssay AID652154 (Broad Institute, 2013).

The list shows a part of the results, in another mix than the full data. Calls of active or inactive are those of the source.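 The calls were made as follows: active = mean replicate inhibition at least 60% with every replicate also reaching 60%; inconclusive = only one of the two criteria is met; inactive = mean below 60% and not all replicates reaching 60%.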

A short description of this experiment: inhibitors of PAX8-driven TPO luciferase reporter, primary screen, RMG-I cells, single concentration (AID 652154).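 Also: luciferase light reporting Pax8 driven TPO promoter activity; plate controls were median of neutral control wells for no effect and mitoxantrone controls for full effect.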 The conditions noted are these: SteadyGlo, 24 h, at 12.6 µM, stronger effect = higher value. (In general: Reporter assays use an easily measured gene product as a stand-in for the process of interest.)
`CCCCn1nnnc1C(c1ccnc2ccccc12)N1CCC(n2c(=O)[nH]c3ccccc32)CC1` (stereo unspecified): the inhibition was inactive: 12.1%.

For the compound `COc1cc(OC)c(C(=O)NCC2(N(C)C)CCCCC2)cc1OC`, the inhibition was inactive: 1.16%.

`O=C(NCC1(N2CCOCC2)CCCCC1)c1cc(F)c(F)cc1Cl`: the inhibition is inactive: -23.5%.

As for `CCC(c1nnnn1C(C)(C)C)N1CCC(n2c(=O)[nH]c3ccccc32)CC1` (stereo unspecified), the inhibition is inactive: -39.8%.

Turning to `COc1ccc(CN(CCCl)CCCl)cc1Cl`, the inhibition is inactive: -16%.

With `CN(C)c1cccc(C(=O)NCC2(N3CCCCC3)CCCCC2)c1`, the inhibition is inactive: 19.1%.

Turning to `CC(C)c1ccc(NC2CCN(C(=O)OC(C)(C)C)CC2)cc1`, the inhibition is inactive: -99.6%.

For the compound `Cc1ccc(C(=O)NCC2(N(C)C)CCCCC2)o1`, the inhibition is inactive: -20.8%.

As for `CCCOc1ccc(C(=O)NCC2(N(C)C)CCCCC2)cc1OC`, the inhibition is inactive: 10.1%.

For `COc1ccc(C(c2nnnn2C2CCCC2)N2CCC(n3c(=O)[nH]c4ccccc43)CC2)cc1` (stereo unspecified), the inhibition was inactive: -8.72%.

Take `O=C(NCC1(N2CCCCC2)CCCCC1)c1cncc(Br)c1`: the inhibition was inactive: 5.62%.

Turning to `CSc1ccc(C(=O)NCC2(N3CCOCC3)CCCCC2)cc1`, the inhibition was inactive: -7.44%.

With `O=C(NCC1(N2CCCCC2)CCCCC1)c1cccc([N+](=O)[O-])c1`, the inhibition was inactive: 5.68%.

For the compound `CCN1CCC(Nc2ccc(Cl)cc2)CC1`, the inhibition was inactive: -2.82%.

`O=c1[nH]c2ccccc2n1C1CCN(C(c2ccccc2OC(F)(F)F)c2nnnn2C2CCCC2)CC1` (stereo unspecified): the inhibition is inactive: 7.75%.

On to `CC(C)(C)n1nnnc1C(c1ccccc1OC(F)(F)F)N1CCC(n2c(=O)[nH]c3ccccc32)CC1` (stereo unspecified), for which the inhibition is inactive: 35.9%.

Take `O=C(NCC1(N2CCCCC2)CCCCC1)c1ccc(OC(F)F)cc1`: the inhibition was inactive: 9.96%.

`CN1CCN(CCOC(=O)C(O)(c2ccccc2)c2ccccc2)CC1`: the inhibition was inactive: -0.63%.

As for `CC(C)c1ccc(C(=O)NCC2(N3CCOCC3)CCCCC2)cc1`, the inhibition was inactive: -27.2%.

Consider `COc1ccc(NC2CCN(C(=O)OC(C)(C)C)CC2)cc1`, for which the inhibition was inactive: -19.8%.

As for `CCCCn1nnnc1C(c1cccc2ccccc12)N1CCC(n2c(=O)[nH]c3ccccc32)CC1` (stereo unspecified), the inhibition was inactive: 19.6%.

On to `COc1cc(C(=O)NCC2(N3CCCCC3)CCCCC2)ccc1OC(F)F`, for which the inhibition is inactive: 9.48%.

As to `O=C(NCC1(N2CCCCC2)CCCCC1)c1cccc(C(F)(F)F)c1`, the inhibition was inactive: -5.8%.

For the compound `O=P1(N(CCCl)CCCl)SCCCS1`, the inhibition is inactive: -20.5%.

`CCCCn1nnnc1C(c1cc2ccccc2o1)N1CCC(n2c(=O)[nH]c3ccccc32)CC1` (stereo unspecified): the inhibition is inactive: 39.6%.

Turning to `CCCCOc1ccc(C(=O)NCC2(N3CCOCC3)CCCCC2)cc1`, the inhibition was inactive: -8.47%.

For `O=C(NCC1(N2CCCCC2)CCCCC1)c1ccc(F)cc1`, the inhibition was inactive: 23.8%.

`CCOC(=O)N1CCC(Nc2ccc(F)cc2)CC1`: the inhibition is inactive: -1.75%.

For the compound `CCOc1ccc(C)cc1CN(CCCl)CCCl`, the inhibition was inactive: 6.61%.

Turning to `CC(C)(C)n1nnnc1C(c1ccccc1)N1CCC(n2c(=O)[nH]c3ccccc32)CC1` (stereo unspecified), the inhibition was inactive: -6.72%.

Consider `O=c1[nH]c2ccccc2n1C1CCN(C(c2cccc3ccccc23)c2nnnn2C2CCCC2)CC1` (stereo unspecified), for which the inhibition was inactive: 40.1%.

For `CCOC(=O)N1CCC(Nc2cccc(C)c2)CC1`, the inhibition was inactive: -140%.

For the compound `COc1cc(C(=O)NCC2(N(C)C)CCCCC2)ccc1OC(F)F`, the inhibition is inactive: -0.557%.

For `O=c1[nH]c2ccccc2n1C1CCN(C(c2ccccc2)c2nnnn2C2CCCCC2)CC1` (stereo unspecified), the inhibition is inactive: -3.75%.

In the case of `CSc1ccccc1C(=O)NCC1(N2CCCCC2)CCCCC1`, the inhibition was inactive: 13.8%.

For the compound `Cc1cccc(NC2(C#N)CCN(Cc3ccccc3)CC2)c1`, the inhibition is inactive: -18.8%.

On to `O=C(NCC1(N2CCCCC2)CCCCC1)c1ccc(=O)[nH]c1`, for which the inhibition is inactive: -4.63%.

Take `O=C(NCC1(N2CCCCC2)CCCCC1)c1cccs1`: the inhibition is inactive: -2.43%.

Regarding `CCCCn1nnnc1C(CC)N1CCC(n2c(=O)[nH]c3ccccc32)CC1` (stereo unspecified), the inhibition was inactive: -2.2%.

Consider `CCCCn1nnnc1C(c1cccs1)N1CCC(n2c(=O)[nH]c3ccccc32)CC1` (stereo unspecified), for which the inhibition is inactive: 1.71%.

On to `COc1ccc(C(=O)NCC2(N3CCCCC3)CCCCC2)cc1`, for which the inhibition is inactive: -0.611%.

For `CC(C)(C)OC(=O)N1CCC(N(C(=O)c2ccccc2)c2ccc(F)cc2)CC1`, the inhibition is inactive: -2.75%.

For the compound `COc1ccc(C(=O)NCC2(N3CCCCC3)CCCCC2)c(OC)c1OC`, the inhibition is inactive: 3.91%.

`CCC(c1nnnn1C1CCCC1)N1CCC(n2c(=O)[nH]c3ccccc32)CC1` (stereo unspecified): the inhibition was inactive: -20%.

For the compound `CCOC(=O)N1CCC(Nc2ccc(OC)cc2)CC1`, the inhibition was inactive: 2.4%.

As for `CCCCn1nnnc1C(c1ccc(OC)cc1)N1CCC(n2c(=O)[nH]c3ccccc32)CC1` (stereo unspecified), the inhibition was inactive: 3.81%.

Regarding `N#CC1(Nc2ccccc2)CCN(Cc2ccccc2)CC1`, the inhibition was inactive: -15.6%.

Turning to `O=C(NCC1(N2CCCCC2)CCCCC1)c1ccc(Cl)s1`, the inhibition was inactive: 8.78%.

In the case of `O=c1[nH]c2ccccc2n1C1CCN(C(c2cc3ccccc3o2)c2nnnn2C2CCCCC2)CC1` (stereo unspecified), the inhibition is inactive: -8.93%.

As for `COc1ccc(Cl)cc1C(=O)NCC1(N2CCOCC2)CCCCC1`, the inhibition was inactive: 1.5%.

For the compound `O=c1[nH]c2ccccc2n1C1CCN(C(c2ccccc2OC(F)(F)F)c2nnnn2C2CCCCC2)CC1` (stereo unspecified), the inhibition was inactive: -23.5%.

With `Cc1cc(C)cc(N(C(=O)c2ccccc2)C2CCN(C(=O)OC(C)(C)C)CC2)c1`, the inhibition is inactive: 6.7%.

On to `O=c1[nH]c2ccccc2n1C1CCN(C(c2cc3ccccc3o2)c2nnnn2C2CCCC2)CC1` (stereo unspecified), for which the inhibition is inactive: -13.9%.

For the compound `CCCOc1ccc(C(=O)NCC2(N(C)C)CCCCC2)cc1`, the inhibition is inactive: -8.46%.

For the compound `CC(C)(C)OC(=O)N1CCC(Nc2ccccc2)CC1`, the inhibition was inactive: 2.2%.

With `O=C(O)C1(Nc2ccccc2)CCN(Cc2ccccc2)CC1`, the inhibition is inactive: -15.4%.

With `NN(c1ccccc1)C1CCN(CCc2ccccc2)CC1`, the inhibition is inactive: 7.18%.

As for `CN1CCC(Nc2ccc(F)c(Cl)c2)CC1`, the inhibition is inactive: -17.2%.

Turning to `CN1CCC(Nc2ccc(Cl)cc2)CC1`, the inhibition was inactive: -2.89%.

In the case of `COc1cccc(C(c2nnnn2C2CCCC2)N2CCC(n3c(=O)[nH]c4ccccc43)CC2)c1OC` (stereo unspecified), the inhibition was inactive: 27.8%.

For the compound `COc1cc(OC)cc(C(=O)NCC2(N3CCOCC3)CCCCC2)c1`, the inhibition is inactive: 35.1%.

With `COc1cccc(C(=O)N(c2cc(C)cc(C)c2)C2CCN(C(=O)OC(C)(C)C)CC2)c1`, the inhibition was inactive: 26.7%.

With `Cc1ccc(NC2(C#N)CCN(Cc3ccccc3)CC2)cc1`, the inhibition was inactive: -5.28%.

For the compound `Cc1ccc(C(=O)NCC2(N3CCCCC3)CCCCC2)o1`, the inhibition was inactive: -27.1%.

In the case of `COc1cc(OC)cc(C(=O)NCC2(N3CCCCC3)CCCCC2)c1`, the inhibition is inactive: 12.5%.

Consider `O=c1[nH]c2ccccc2n1C1CCN(C(c2ccnc3ccccc23)c2nnnn2C2CCCCC2)CC1` (stereo unspecified), for which the inhibition is inactive: -10.4%.

Turning to `COc1cccc(C(c2nnnn2C2CCCCC2)N2CCC(n3c(=O)[nH]c4ccccc43)CC2)c1OC` (stereo unspecified), the inhibition was inactive: 44.2%.

For `CC(=O)N(c1ccccc1)C1CCNCC1`, the inhibition is inactive: -12.4%.

As to `CCC(c1nnnn1C1CCCCC1)N1CCC(n2c(=O)[nH]c3ccccc32)CC1` (stereo unspecified), the inhibition is inactive: 5.87%.

Turning to `O=C(NCC1(N2CCCCC2)CCCCC1)c1ccco1`, the inhibition was inactive: -14%.

`CN(C)c1ccc(C(=O)NCC2(N3CCCCC3)CCCCC2)cc1`: the inhibition was inactive: 0.831%.

In the case of `Cn1c(=O)[nH]cc(N(CCCl)CCCl)c1=O`, the inhibition is inactive: 1.32%.

Consider `Cc1ccccc1NC1(C#N)CCN(Cc2ccccc2)CC1`, for which the inhibition is inactive: 0.222%.

`CCN1CCC(Nc2cccc(F)c2)CC1`: the inhibition is inactive: 10.3%.

In the case of `COc1ccc(C(c2nnnn2C2CCCCC2)N2CCC(n3c(=O)[nH]c4ccccc43)CC2)cc1` (stereo unspecified), the inhibition is inactive: -19%.

For the compound `CC(C)(C)n1nnnc1C(c1ccnc2ccccc12)N1CCC(n2c(=O)[nH]c3ccccc32)CC1` (stereo unspecified), the inhibition was inactive: 16.3%.

Regarding `CC(C)(C)OC(=O)N1CCC(N(C(=O)c2ccccc2)c2ccc(Cl)cc2)CC1`, the inhibition is inactive: -0.563%.

As for `N#Cc1ccc(C(=O)NCC2(N3CCCCC3)CCCCC2)cc1`, the inhibition was inactive: 18.7%.

Consider `CC(C)(C)n1nnnc1C(c1cccc2ccccc12)N1CCC(n2c(=O)[nH]c3ccccc32)CC1` (stereo unspecified), for which the inhibition is inactive: 29.7%.

For the compound `C/C(N)=N\P(=O)(Oc1ccccc1)Oc1ccccc1`, the inhibition was inactive: 7.6%.

Regarding `c1ccc(CN2CCC(Nc3ccccc3)CC2)cc1`, the inhibition was inactive: -5.62%.

In the case of `Cc1cc(N(CCCl)CCCl)ccc1C=O`, the inhibition was inactive: 21.6%.

Turning to `CCCN1CCC(Nc2cc(OC)cc(OC)c2)CC1`, the inhibition is inactive: 7.66%.

`O=c1[nH]c2ccccc2n1C1CCN(C(c2ccccc2)c2nnnn2C2CCCC2)CC1` (stereo unspecified): the inhibition is inactive: 2.47%.

Consider `CN(C)C1(CNC(=O)c2cccc(C#N)c2)CCCCC1`, for which the inhibition was inactive: 1.12%.

Turning to `COc1ccc(C(=O)NCC2(N3CCOCC3)CCCCC2)cc1OC`, the inhibition is inactive: 12.3%.

Regarding `O=c1[nH]c2ccccc2n1C1CCN(C(c2ccnc3ccccc23)c2nnnn2C2CCCC2)CC1` (stereo unspecified), the inhibition was inactive: 32.5%.

As for `O=c1[nH]c2ccccc2n1C1CCN(C(c2cccs2)c2nnnn2C2CCCCC2)CC1` (stereo unspecified), the inhibition was inactive: 8.59%.

On to `O=C(NCC1(N2CCOCC2)CCCCC1)c1cc(Br)ccc1Cl`, for which the inhibition is inactive: -8.66%.

For the compound `CCCCn1nnnc1C(c1ccccc1)N1CCC(n2c(=O)[nH]c3ccccc32)CC1` (stereo unspecified), the inhibition was inactive: 14.4%.

For the compound `COc1cc(C(=O)NCC2(N3CCOCC3)CCCCC2)cc(OC)c1C`, the inhibition was inactive: 9.47%.

On to `CCCCn1nnnc1C(c1cccc(OC)c1OC)N1CCC(n2c(=O)[nH]c3ccccc32)CC1` (stereo unspecified), for which the inhibition is inactive: 19%.

Turning to `O=C(OC1CN2CCC1CC2)C1c2ccccc2C=Cc2ccccc21` (stereo unspecified), the inhibition was inactive: -2.02%.

Consider `O=c1[nH]c2ccccc2n1C1CCN(C(c2cccs2)c2nnnn2C2CCCC2)CC1` (stereo unspecified), for which the inhibition is inactive: -10.2%.

Take `CCOC(=O)N1CCC(Nc2ccc(C)cc2)CC1`: the inhibition is inactive: 3.39%.

Consider `COc1cccc(C(c2nnnn2C(C)(C)C)N2CCC(n3c(=O)[nH]c4ccccc43)CC2)c1OC` (stereo unspecified), for which the inhibition was inactive: 28.4%.

One may read the inhibition as the drop in the measured response relative to a control, in per cent.
